Results: patent US20080260834A1, “VITAMIN D3 ANALOG LOADED POLYMER FORMULATIONS FOR CANCER AND NEURODEGENERATIVE DISORDERS” (priority 2002, published 2008)

Tests used:
B16 (malignant melanoma) = assay: In vitro proliferation assay, B16; type: cell-based, murine; settings: at 10 nM against B16 (p<0.03)
[1] = test system: EMT6 (breast cell carcinoma); assay: In vitro proliferation assay, EMT6; type: cell-based, murine; settings: at 100 nM against EMT6 (p<0.01)
EMT6 breast carcinoma = settings: pCPP:SA wafers loaded 0.5% w/w in the flank
[2] = wafers loaded at 2.1% (w/w), 30% ethanol/70% phosphate buffer pH 7.4, 37° C.
NGF = settings: 100 nM, 48 hours, L929 fibroblasts, p<0.03
[3] = Calcemic activity, daily intraperitoneal injections in mice; type: in vivo, C57/B16 mice; settings: for weight loss: 7 days; for blood ionized calcium: day 7
[4] = Hypercalcemic toxicity of wafers, intraflank vs intracranial; type: in vivo,  mice; settings: 5 mg pCPP:SA wafer loaded 0.1%
[5] = drug loading of pCPP:SA (20:80) wafers implanted in brain of mice; weight loss monitored
CT26 (colon carcinoma) = assay: In vitro proliferation assay, CT26; type: cell-based, murine; settings: at 1000 nM against CT26 (p<0.01, data not shown)
[6] = 10 mg pCPP:SA wafers loaded 0.5%, intracranial, 12 days
[7] = test system: RENCA (renal cell carcinoma); assay: In vitro proliferation assay, RENCA; type: cell-based, murine; settings: at 10 nM against RENCA (p<0.03)

Structure (SMILES): C=C1/C(=C\C=C2/CCCC3(C)[C@@H]([C@H](C)OCCCC(O)(CC)CC)CC[C@@H]23)CC(O)C[C@H]1CO (stereo partly shown) [MCW-005-YB]
- antiproliferative activity (B16 (malignant melanoma)): significant antiproliferative activity
- antiproliferative activity [1]: significant antiproliferative activity
- toxicity in the treatment arm (EMT6 breast carcinoma): unexpected lethal toxicity
- growth of EMT6 solid tumors (EMT6 breast carcinoma; not statistically significant): inhibits the growth of EMT6 solid tumors
- period of continuous drug release [2]: 110 h
- drug release (total) ([2]; 110 hours): 50.2%
- increase in NGF expression compared to solvent controls (NGF): 40%
- weight loss ([3]; 1 mg/kg/day i.p.): no weight loss
- blood ionized calcium ([3]; 1 mg/kg/day i.p.): no weight loss or significant rise in blood ionized calcium
- weight loss ([3]; 10 mg/kg/day i.p.): no weight loss
- blood ionized calcium ([3]; 10 mg/kg/day i.p.): no weight loss or significant rise in blood ionized calcium
- weight loss ([3]; 100 mg/kg/day i.p.): no weight loss
- blood ionized calcium ([3]; 100 mg/kg/day i.p.): no weight loss or significant rise in blood ionized calcium
- signs of toxic hypercalcemia ([4]; intracranial): no signs of toxic hypercalcemia
- weight loss ([4]; intracranial, 7 days): no significant weight loss
- blood ionized calcium levels ([4]; intracranial, day 7): no significant weight loss or rises in blood ionized calcium levels
- signs of toxic hypercalcemia ([4]; intraflank): no signs of toxic hypercalcemia
- highest tolerated dose [5]: 1%
- antiproliferative activity (CT26 (colon carcinoma)): significant antiproliferative activity
- weight loss [6]: no weight loss
- antiproliferative activity [7]: significant antiproliferative activity

Structure (SMILES): C=C1/C(=C\C=C2/CCC[C@]3(C)[C@@H]([C@H](C)/C=C/C=C/C(O)(CC)CC)CC[C@@H]23)CC(O)C[C@H]1CO (stereo partly shown) [MCW-068-Y-EE]
- antiproliferative activity (B16 (malignant melanoma)): significant antiproliferative activity
- antiproliferative activity [1]: significant antiproliferative activity
- antiproliferative activity (CT26 (colon carcinoma)): significant antiproliferative activity
- antiproliferative activity [7]: significant antiproliferative activity

Where two headings read alike, the source gives them in different places.
